PubChem BioAssay AID540269 (Sanford-Burnham Center for Chemical Genomics, 2011)

Target: glucose-6-phosphate dehydrogenase-6-phosphogluconolactonase (Plasmodium falciparum 3D7)
Experiment: inhibition of P. falciparum G6PD activity – biochemical, kinetic NADPH detection, orthogonal assay, dose response (AID 540269)
Details: purified PfG6PD-6PGL

Molecule `CNc1nc(-c2ccccc2)[n+](-c2ccc(C)cc2)s1` has an IC50 of 14.6 µM.
